Values quoted from earlier work in article PMC6572996, “Silver(I) Complexes of the Pharmaceutical Agents Metronidazole and 4-Hydroxymethylpyridine: Comparison of Cytotoxic Profile for Potential Clinical Application” (Molecules, 2019).

Legend:
[1] = system: murine melanoma cell line (B16F10); conditions: concentration range 1 to 10 µM, 72 h incubation; cited from earlier work
[2] = system: murine melanocyte cell line (Melan-a); conditions: concentration range 1 to 10 µM, 72 h incubation; cited from earlier work
NIH 3T3 fibroblasts = conditions: higher concentrations (1.5%), exposure 72 h; cited from earlier work

O=[N+]([O-])[O-].[Ag+] [Silver nitrate]
Cytotoxicity in B16F10 [1]: not cytotoxic | Cytotoxicity in Melan-a [2]: not cytotoxic | Toxicity on NIH 3T3 fibroblasts (NIH 3T3 fibroblasts): toxic action
